Here are results for 2 compounds from patent US20230382889A1 (Volastra Therapeutics, Inc., priority 2022, published 2023).

Sequences of proteins named here, by UniProt entry; tags and fusion partners are left off. Residues count along the entry.
UniProt Q8NI77, 1-374 limits assumed: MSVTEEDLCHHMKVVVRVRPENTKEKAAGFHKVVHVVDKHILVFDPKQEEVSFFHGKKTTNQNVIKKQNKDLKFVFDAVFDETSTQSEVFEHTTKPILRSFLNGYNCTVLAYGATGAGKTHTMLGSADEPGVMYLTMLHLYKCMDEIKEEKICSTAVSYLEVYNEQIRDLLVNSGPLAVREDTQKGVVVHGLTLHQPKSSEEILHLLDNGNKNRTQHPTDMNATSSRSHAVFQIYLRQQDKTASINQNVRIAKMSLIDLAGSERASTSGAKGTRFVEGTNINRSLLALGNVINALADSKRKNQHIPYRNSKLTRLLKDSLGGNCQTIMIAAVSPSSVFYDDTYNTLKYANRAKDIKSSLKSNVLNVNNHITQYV

What is called IC50 is the point on the concentration scale where inhibition reaches its midpoint. The low end stands for greater potency, the high end for weaker potency.

SMILES strings stand for the structures.

In the test the target is hKIF18A (1-374) (Homo sapiens (Human), UniProt Q8NI77). As to the kind of experiment: Inhibition of KIF18A microtubule-dependent ATPase activity (ADP-Glo). The format is biochemical. The following applies: 4 nM hKIF18A (1-374).

`Cc1cc(-n2cc(-c3ccc(NS(=O)(=O)CCO)cc3N3CCC4(CC3)CC4)nn2)nc(N2C[C@H]3C[C@@H]2CO3)n1` yielded a concentration for half-maximal inhibition (IC50) of 43 nM.

As for `Cc1cc(-n2cc(-c3ccc(NS(=O)(=O)CCO)cc3N3CCC4(CC3)CC4)nn2)nc(N2C[C@@H]3C[C@H]2CO3)n1`, the IC50 came out at 11 nM.
